# Apparent affinities of Ab-95 variants for a coronavirus HR2 peptide

Target peptide (SARS-CoV-2 spike, HR2 region): PDVDLGDISGINAS

Each scFv is VH, three GGGGS repeats, VL, as in the parent Ab-95, and differs from it in the CDRs of the light chain only.
VH: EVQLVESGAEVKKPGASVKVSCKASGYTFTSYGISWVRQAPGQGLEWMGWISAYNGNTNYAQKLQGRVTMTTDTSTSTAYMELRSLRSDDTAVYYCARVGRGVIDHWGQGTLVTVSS
VL: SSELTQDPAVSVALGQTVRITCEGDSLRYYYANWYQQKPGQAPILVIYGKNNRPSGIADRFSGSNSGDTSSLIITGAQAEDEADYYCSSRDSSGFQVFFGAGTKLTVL

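The starting antibody came from a phage panning campaign against this peptide. Variants in AAYL52 differ from the parent at up to three CDR positions; double and triple changes were sampled at random. Affinity was read by AlphaSeq, a pooled yeast mating assay with surface-displayed partners. The frequency of each diploid, read from paired DNA barcodes, reflects how well the two displayed proteins bind. A regression on co-assayed BCL2-family reference pairs converts the normalised counts of each replicate to an apparent Kd. The assay was run in three technical replicates.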

Each variant is given by its three light chain CDRs, as the data file delimits them; those of the parent are EGDSLRYYYAN, GKNNRPS, SSRDSSGFQVF. Scale: log10 of Kd in nM, estimated from mating counts; low values are strong binders. Averages over replicates are reported, and they cover detected replicates only. A pair that was not seen in any replicate is written "nd"; this usually means weak binding, but a binder can also be missed. Three control strains display no target. For library AAYL52, 28% of the pairings with them gave a signal, with a median of 3.91 and one signal in twenty below 2.90, so weak values seen in few replicates may be background. Also given: how often the same scFv was detected with the empty control strains.

CDR-L1,CDR-L2,CDR-L3,"mean, log10 nM",detected,control signals
EGDSLIYYYAN,GKNNRPS,IHRDSSGFQVF,3.19,1/3,1/9
EGDSLRYYYAN,GKNNRPS,SMLDSSGFQVS,nd,0/3,2/9
EGDSLRYNYAN,GKNNRWS,SSRVSSGFQVF,2.64,3/3,6/9
EGDSLRYYYAN,GKNMRQS,SSRDDSGFQVF,3.12,3/3,4/9
EGDSLRYYYAN,GKNNFPS,SSSDSSGIQVF,3.66,1/3,3/9
EGDSQRYYYAN,GPNNRPS,SSRDESGFQVF,2.36,3/3,2/9
EGDSLRYYYAN,GKNNRPS,SSRDSSPFQNF,3.22,2/3,0/9
EGDSLRYYYAK,GKNNRPS,SSIDSSKFQVF,nd,0/3,1/9
EGDSLRYRRAN,GKNNRPS,SSRDSSGFQVF,3.04,3/3,2/9
QLDSLRYYYAN,GKNNRPS,SQRDSSGFQVF,2.92,3/3,2/9
EGDKLRYEYAN,GKNNRPS,SSRLSSGFQVF,nd,0/3,2/9
EGDSLRYYYAG,GKNNRPS,SSVDSSGFQVF,3.59,3/3,0/9
ESDSLRYYYAN,GKNNRFS,SSPDSSGFQVF,4.31,2/3,4/9
EGDSCRYYYAN,GKNNRPS,SSRFSSGFQEF,nd,0/3,1/9
EGDSLRYYYAN,HKNNRPS,STRDSSGFQVY,3.80,3/3,2/9
EGDSLRYYHAN,GKNNRPA,SFRDSSGFQVF,nd,0/3,4/9
EGDSLRYYYQN,GKNNRPS,SSRDTSGFQFF,nd,0/3,1/9
EGDSLRYSYAN,GKNSRPS,SSRDSSGFQVF,0.74,3/3,5/9
EGDSLRYYYAN,GKNNRPE,SSMDSIGFQVF,1.53,3/3,0/9
EPDSLRYLYAN,GKNNRDS,SSRDSSGFQVF,4.50,1/3,2/9
ECDSLRYYYAN,GVNNRPS,SSRDSSNFQVF,4.38,1/3,4/9
EGDSLAYYYAN,GKNNRPS,SSPDSYGFQVF,3.83,1/3,6/9
EGDSQRYYYAN,GKNNDVS,SSRDSSGFQVF,4.03,2/3,0/9
GGDSLRYYYAN,GQNNRPS,SSRDSSGFQVF,1.48,3/3,4/9
EGDSLRYYYAN,KKNNRWS,SSRDSSGHQVF,nd,0/3,4/9
ERDSLRYYYPN,GKNNRPS,SSRDSSGFQVA,2.64,3/3,3/9
EGDSLRYYYMN,EKNNRPS,SSRDSSRFQVF,nd,0/3,2/9
EGDSLKYYYCN,GKNNRNS,SSRDSSGFQVF,3.15,3/3,3/9
EGDSLRYYYAW,GKNNRPS,SSRYSSIFQVF,nd,0/3,2/9
EGDSLRYYYAN,GKNNRPS,SSRDTSGTQGF,2.14,3/3,4/9
EGDSLGYYYAN,GKNVRPS,SIRDSSGFQVF,3.56,3/3,4/9
EGDSYRYYYAN,GKNNRPS,SHRDSSGFQVA,nd,0/3,0/9
EGDHLCYYYAN,GKNNRPS,SSRSSSGFQVF,4.16,3/3,4/9
ESDSLRYYYAN,GDNNRPS,SSRDSSGFQVF,2.04,3/3,3/9
EGDSLRYYYAN,GKNNNPS,GSRDSWGFQVF,4.25,1/3,1/9
EGDSLRYYYAN,GKNNRPS,STRDGSGFQVK,3.10,1/3,2/9
EGPSLRYDYAN,GKNNRPS,SSRDSSGFKVF,1.86,3/3,3/9
EGASLRYYYLN,GKNNRPS,SSRDSSGFQVD,4.28,1/3,2/9
EGDSVRYYYAN,GHNSRPS,SSRDSSGFQVF,4.04,1/3,3/9
EGDSLRYYYAN,GKNNRQS,CSRDSSWFQVF,3.62,3/3,3/9
EGDSLRYYYAN,GKNNRPS,TKRDSSGFQVC,nd,0/3,1/9
EGDSLRYMYAN,GKNNPPS,SSRDSSHFQVF,4.04,2/3,4/9
EGDSLRYYYAN,GKNNRPS,SSRDLLGFQVF,1.91,3/3,1/9
EGDSCRYYYHN,GKNNRPS,SERDSSGFQVF,3.37,1/3,1/9
EGDSLRYYYAN,GKFNYPS,SSRDTSGFQVF,nd,0/3,1/9
EKDSLRYYYAN,GNNNRPY,SSRDSSGFQVF,2.77,3/3,0/9
EGDSLRYYYWN,GKNNRPS,STRDSSAFQVF,nd,0/3,1/9
EEDCLRYYYAN,GKRNRPS,SSRDSSGFQVF,3.65,2/3,0/9
EGDSLRYYYAN,GKNNRPS,VSRDKSGFQVE,1.78,3/3,3/9
EGDQLRYYYAN,GNNNRPS,SSRESSGFQVF,3.58,3/3,2/9
EGDSLSYYWAN,GKNNRPS,SSRDSSGFQVY,2.85,3/3,1/9
EDDDLRYYYAN,GKNNRPS,SIRDSSGFQVF,3.40,1/3,4/9
EGDSSNYYYAN,GKNNRPS,SSRDSSGFQVF,2.53,3/3,3/9
EGDSLRQYYAN,GKNNFPS,SSRDSSDFQVF,3.81,2/3,3/9
AGDSLRYYHAN,GKNNRPS,GSRDSSGFQVF,1.61,3/3,3/9
EGDSLRYYYAN,GKNNRPS,SQRDSSEEQVF,2.73,3/3,2/9
EGDSLRYYYAA,GKNNRLS,SSRDSSGFQVF,4.33,1/3,3/9
EGDSLRYYYYI,GKNNRLS,SSRDSSGFQVF,2.99,3/3,4/9
TGDSLRYYYAN,GKNNHPS,SSRDSSGIQVF,2.87,3/3,2/9
EGDSLKYYYAN,GKNNRPK,SSRDFSGFQVF,2.48,3/3,2/9
EGDYLRYYYQN,GKNNRPS,TSRDSSGFQVF,5.09,1/3,2/9
EGDSLRYYYAN,GKNNWPS,SFRDSPGFQVF,5.51,1/3,4/9
EGDSLRYYYAN,GKNNRPS,SSRMSVPFQVF,2.21,3/3,1/9
WGDSLRYYQAN,GKNNRPS,STRDSSGFQVF,2.14,3/3,2/9
EGDSLEYYYAN,GDNNRPS,SSRWSSGFQVF,4.75,1/3,5/9
EGDSLRYYYAN,GKNNRWD,SSRDSSGKQVF,2.52,3/3,3/9
EGDKLRYYYAN,GKNNEPS,SSRDTSGFQVF,nd,0/3,2/9
EGDSLRYYYAN,GKNNRPS,AHRDSSGFQVS,1.93,3/3,4/9
EGDSLRYYYAN,GKNNRPW,SSRDSSGVQVP,2.67,2/3,1/9
ESDSLRYYYAN,GKNNRPS,ESRDSSGFQVF,nd,0/3,2/9
EGDSLRQYYAN,GMNNRPS,SSRDSSGFQVP,2.70,3/3,5/9
EGDSLRYYYAN,GKNNRDS,SSRDHYGFQVF,2.81,3/3,1/9
GGDSLRYYYAN,GKNNRPS,SSADSSGFQNF,nd,0/3,3/9
EGGSLRYYYAN,CKNNRPS,SSRDSSGFQVF,3.47,3/3,2/9

11 of these entries, quoted again:

CDR-L1,CDR-L2,CDR-L3,"mean, log10 nM",detected,control signals
EGDSLRYYYAN,HKNNRPS,STRDSSGFQVY,3.80,3/3,2/9
EGDSCRYYYHN,GKNNRPS,SERDSSGFQVF,3.37,1/3,1/9
EGDSLRYYYAN,GKNNRDS,SSRDHYGFQVF,2.81,3/3,1/9
ESDSLRYYYAN,GKNNRFS,SSPDSSGFQVF,4.31,2/3,4/9
EGDSLRYYYAN,GKNNWPS,SFRDSPGFQVF,5.51,1/3,4/9
EGDSLRYYYAN,GKNNRPS,TKRDSSGFQVC,nd,0/3,1/9
EGDSQRYYYAN,GPNNRPS,SSRDESGFQVF,2.36,3/3,2/9
EEDCLRYYYAN,GKRNRPS,SSRDSSGFQVF,3.65,2/3,0/9
EGDHLCYYYAN,GKNNRPS,SSRSSSGFQVF,4.16,3/3,4/9
EGDSLRYSYAN,GKNSRPS,SSRDSSGFQVF,0.74,3/3,5/9
EGDSLRYYYAN,GKNNRPS,SQRDSSEEQVF,2.73,3/3,2/9

For reference, the parent read 2.31 as the reference entry and 2.25 as a member of this library.

Source: Engelhart et al. 2022 (doi:10.1038/s41597-022-01779-4), MIT Lincoln Laboratory and A-Alpha Bio; data file from the FLAb repository.